Experiment: Administration route study in hairless rats with Sumatriptan Succinate (Example 10)
Details: Group 4: 6 mg free base API per 100 μL head of saline, SC injection
Description: In this study, four groups of hairless rats were tested under the following conditions: (1) Group 1 (3 mg free base API, Suc: 0.5 mg, AA: 1 mg); (2) Group 2 (6 mg free base API, Suc: 0.5 mg, AA: 1 mg); (3) Group 3 (9 mg free base API, Suc: 0.5 mg, AA: 1 mg); and (4) Group 4 (6 mg free base API per 100 μL head of saline).
The given bioavailability of Table 18 is relative bioavailability against SC injection.

CNS(=O)(=O)Cc1ccc2[nH]cc(CCN(C)C)c2c1 [Sumatriptan Succinate]
Tmax: 4.8 min

— patent US12324893B2, “Triptan microporation delivery system” (PassPort Technologies, Inc., priority 2019, dated 2025)
